{"source": "patent US20220184072A1", "about": "(priority 2019, published 2022)", "key": {"[1]": {"conditions": "rat, in vivo, sc, 3 mg/kg"}, "[2]": {"assay": "in vivo", "conditions": "mouse"}, "[3]": {"conditions": "0.3 and 3 mg/kg s.c. four times, 28 days"}}}
{"smiles": "O=C1CN2c3c(cccc3[C@@H]3CN(CCCOc4ccc(F)cc4)CC[C@@H]32)N1", "note": "[Example 1, (6bR,10aS)-8-(3-(4-fluorophenoxy)propyl)-6b,7,8,9,10,10a-hexahydro-1H-pyrido[3′,4′:4,5]pyrrolo[1,2,3-de]quinoxalin-2(3H)-one]", "values": [{"measurement": "plasma concentration, 24 hours", "setting": "[1]", "result": 1.9, "unit": "ng/mL"}, {"measurement": "Cmax", "setting": "[2]; po, 10 mg/kg", "result": 1290, "unit": "ng/g"}, {"measurement": "Cmax", "setting": "[2]; sc, 0.1 mg/kg", "result": 78.5, "unit": "ng/g"}, {"measurement": "tolerance", "setting": "[3]", "result": "does not produce tolerance"}]}
